Consider 3 compounds from ChEMBL document CHEMBL1134078, “Structure-based design, synthesis and SAR of a novel series of thiopheneamidine urokinase plasminogen activator inhibitors” (Bioorg Med Chem Lett, 2001).

One may read the Ki as a measure of affinity in units of concentration, obtained from inhibition or displacement. A high value points to a looser hold on the target.

The target of the test is Urokinase-type plasminogen activator (Homo sapiens, UniProt P00749).
`CSc1sc(C(=N)N)cc1-c1nc(-c2ccccc2)cs1` displayed a Ki of 90 nM.
Then `CSc1sc(C(=N)N)cc1-c1nc(C)cs1`, with 1000 nM; and `CSc1sc(C(=N)N)cc1-c1nc(-c2cccs2)cs1`, with 89000 nM.
